Ab-14 heavy chain CDR variants: yeast mating affinities

Data: MIT Lincoln Laboratory AlphaSeq set, Li et al. 2023, doi:10.1038/s41467-023-39022-2, as distributed in FLAb.

Target peptide (SARS-CoV-2 spike, HR2 region): PDVDLGDISGINAS

Each scFv is VH, a 15-residue (Gly4Ser)3 linker, VL, as in the parent Ab-14, and differs from it in the CDRs of the heavy chain only.
VH: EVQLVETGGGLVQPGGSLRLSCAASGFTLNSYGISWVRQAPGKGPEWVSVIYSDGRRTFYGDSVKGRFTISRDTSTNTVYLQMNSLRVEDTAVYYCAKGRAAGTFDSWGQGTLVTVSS
VL: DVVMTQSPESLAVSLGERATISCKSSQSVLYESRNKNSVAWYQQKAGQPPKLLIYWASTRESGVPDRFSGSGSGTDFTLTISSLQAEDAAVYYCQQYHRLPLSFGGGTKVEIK

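Phage display of a naive human antibody library on the peptide gave the parent. These sequences belong to a second round, designed from the earlier measurements on random variants of the parent. Their group label is 14H_GP_Gen (GP: Gaussian process model; Gen: genetic algorithm; a sequence that several methods proposed may carry one label only). AlphaSeq pools MATa yeast showing the antibodies with MATalpha yeast showing the peptide. Mating (16 h, 30 °C) was followed by selection of diploids and sequencing of their barcodes. Scores were corrected for input abundance and mapped to Kd with protein pairs of known affinity run in the same pool. Mating was done six times.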

The parent's heavy chain CDRs are GFTLNSYGIS, VIYSDGRRTFYGDSVK, GRAAGTFDS; each variant's own CDRs replace them letter for letter.
Numbers give log10(Kd / nM), so 0 is 1 nM and 3 is 1 µM. Smaller is tighter.
An entry "nd" has no value in the source: the pair was not observed among the diploids in that replicate. This suggests poor binding but is not conclusive.
The authors averaged sequences with at least three values out of six and counted those with two or fewer as poor binders.
A sequence measured in both rounds can read differently, since the two assays cover different ranges.
Background: pairings of all heavy chain designs with three empty control strains gave a value in 1% of cases (median 2.08, 5th percentile 0.84). Values in that range, when seen in few replicates, are hard to tell from nonspecific mating. The control count says in how many pairings with the empty strains this scFv gave a signal, with their mean in brackets.

CDR-H1,CDR-H2,CDR-H3,"log10 Kd, replicates",signal with controls
GFDLNSYGIS,VIYSDGRRTFYIDSVK,GRIAGTFDS,0.20 / 0.20 / 0.41 / 0.34 / 0.09 / 0.39,0 of 18
GFDLNSYGIS,VIYSDGRRTFYCDSVK,GREAGTFDT,0.79 / 0.56 / 0.84 / 0.11 / 0.45 / 0.87,1 of 18 (2.94)
GFDLNSYGIS,VIYSDGRRTFYGDSVK,GWQAGTFDS,0.61 / 0.43 / 0.43 / 0.21 / 0.33 / 0.76,1 of 18 (3.09)
GFALNSYGIS,VIYSDGRRTFYQDSVK,GEAAGTFDS,0.71 / 0.21 / 0.68 / 0.26 / 0.73 / 0.77,0 of 18
GFTLNEYGIS,VIYSDGKRTFYGDSVK,GRTAGTFWS,nd / nd / nd / nd / nd / 1.83,0 of 18
GFELNSYGIS,VIYSDGMRTFYKDSVK,GRTAGTFDS,1.21 / 0.21 / 0.40 / 0.03 / 0.71 / nd,1 of 18 (1.42)
GFSLNEYGIS,VIYSDGRRTFYIDSVK,GTAAGTFDS,0.27 / 0.26 / 0.29 / 0.04 / -0.47 / -0.05,0 of 18
GFSLNEYGIS,VIYSDGRRTFYGDSVK,GQTAGTFDK,-0.22 / -0.06 / -0.21 / -0.28 / -0.25 / -0.01,0 of 18
GFSLNSYGIS,VIYSDGRRTFYIDSVK,GKNAGTFDS,nd / 0.20 / 0.74 / 0.25 / 0.80 / 1.03,0 of 18
GFNLNSYGIS,VIYSDGRRTFYGDSVK,GSEAGTFDS,0.55 / 0.09 / 0.14 / 0.29 / 0.05 / 0.44,0 of 18
GFSLNSYGIS,VIYSDGRRTFYGDSVK,GKLAGTFDT,1.35 / 0.85 / 0.61 / 1.49 / 1.58 / 1.22,2 of 18 (1.68)
YFSLNSYGIS,VIYADGRRTFYGDSVK,GEAAGTFDS,nd / 0.77 / 0.25 / 0.16 / 1.85 / 2.21,0 of 18
GFELNMYGIS,VIYSDGRRTFYGDSVK,GQTAGTFDS,1.13 / 0.50 / 0.33 / 0.53 / 0.45 / 0.46,0 of 18
GFTLNSYGIS,VIYSDGRRTFYSDSVK,GKVAGTFDT,0.42 / 0.28 / 0.34 / 0.20 / 0.42 / 0.73,0 of 18
GFSLNSYGIS,VIYSDGRRTFYGDSVK,GVIAGTFDS,0.58 / 0.34 / -0.49 / 0.17 / -0.35 / -0.41,0 of 18
GFHLNSYGIS,VIYSDGRRTFYIDSVK,GREAGTFDS,1.32 / 0.92 / 1.62 / 1.26 / 0.79 / 1.44,0 of 18
WFDLNSYGIS,VIYSDGRRTFYADSVK,GNAAGTFDS,2.10 / 1.66 / 1.78 / 1.91 / 1.30 / 1.46,1 of 18 (2.46)
GFDLNSYGIS,VIYSDGRRTFYGDQVK,GRVAGTFDS,0.32 / 1.21 / 0.49 / 1.34 / 2.01 / 0.44,0 of 18
GFHLNSYGIS,VIYSDGRRTFYIDSVK,GKQAGTFDS,nd / nd / nd / nd / nd / nd,0 of 18
GFELNSYGIS,VIYADGRRTFYGDNVK,GQAAGTFDS,-0.04 / -0.27 / -0.50 / -0.49 / -0.40 / -0.39,0 of 18
GFSLNQYGIS,VIYSDGKRTFYGDSVK,GRTAGTFDS,0.61 / 0.19 / 0.18 / -0.24 / 0.32 / 0.09,1 of 18 (2.90)
GFGLNEYGIS,VIYSDGRRTFYHDSVK,GKTAGTFDS,-0.23 / -0.19 / -0.15 / -0.09 / 0.09 / -0.28,0 of 18
GFELNSYGIS,VIYSDGRRTFYADMVK,GQTAGTFDS,nd / nd / nd / nd / nd / nd,0 of 18
KFDLNSYGIS,VIYSDGRRTFYADSVK,GNAAGTFDS,0.57 / 0.51 / 1.63 / -0.09 / 0.34 / 0.46,0 of 18
KFDLNSYGIS,VIYSDGRRTFYCDSVK,GRTAGTFDS,nd / nd / nd / nd / nd / nd,0 of 18
GFLLNEYGIS,VIYSDGRRTFYGDSVK,GRTAGTFDT,0.44 / 0.14 / 0.05 / -0.21 / 0.17 / -0.17,0 of 18
GFNLNSYGIS,VIYSDGRRTFYGDPVK,GRNAGTFDS,1.57 / 1.01 / 1.19 / 1.68 / 1.39 / 1.14,0 of 18
MFSLNEYGIS,VIYSDGKRTFYGDSVK,GRTAGTFDS,0.36 / 0.58 / -0.26 / 0.39 / nd / nd,0 of 18
GFDLNSYGIS,VIYSDGRRTFYCDSVK,GQTAGTFDS,0.50 / 0.37 / 0.57 / 1.33 / 0.28 / 0.28,0 of 18
GFELNSYGIS,VIYSDGRRTFYIDDVK,GNAAGTFDS,0.58 / 0.65 / 0.48 / 0.34 / 0.03 / 0.16,1 of 18 (1.58)
GFTLNSYGIS,VIYSDGMRTFYSDSVK,GREAGTFDT,0.25 / 0.38 / 0.10 / 0.04 / -0.14 / 0.16,0 of 18
GFELNSYGIS,VIYSDGRRTFYGDHVK,GKTAGTFDS,nd / nd / nd / nd / nd / nd,0 of 18
GFDLNSYGIS,VIYSDGRRTFYGDSVK,GNVAGTFDS,1.10 / 0.48 / 0.90 / 1.09 / 0.96 / 1.06,0 of 18
GFSLNEYGIS,VIYSDGRRTFYQDSVK,GNAAGTFDS,0.47 / -0.40 / -0.41 / -0.20 / 0.04 / 0.25,0 of 18
GFDLNSYGIS,VIYSDGMRTFYSDSVK,GRQAGTFDS,1.23 / 0.63 / 1.16 / 1.24 / 1.63 / 1.25,1 of 18 (3.20)
GFDLNSYGIS,VIYSDGRRTFYGDHVK,GKTAGTFDS,0.71 / 0.23 / 0.54 / 0.70 / 0.03 / 0.06,0 of 18
GFQLNSYGIS,VIYSDGRRTFYGDSVK,GRNAGTFDT,0.40 / 1.14 / 0.96 / 0.76 / 0.54 / 0.77,0 of 18
KFDLNKYGIS,VIYSDGRRTFYGDSVK,GRTAGTFDS,1.69 / 0.71 / 0.78 / 0.71 / 0.64 / 0.98,0 of 18
KFSLNSYGIS,VIYSDGRRTFYSDSVK,GRQAGTFDS,1.31 / 1.84 / 1.44 / 1.11 / 0.93 / 1.45,0 of 18
GFDLNEYGIS,VIYSDGRRTFYGDAVK,GRTAGTFDS,-0.22 / -0.66 / -0.63 / -0.60 / -0.36 / -0.31,1 of 18 (3.03)
GFDLNSYGIS,VIYSDGRRTFYVDSVK,GRTAGTFDT,nd / nd / nd / nd / nd / nd,0 of 18
GFDLNEYGIS,VIYSDGRRTFYGDSVK,GRTAGTFDK,-0.16 / -0.24 / 0.16 / 0.01 / -0.28 / -0.25,0 of 18
GFSLNEYGIS,VIYSDGRRTFYGDQVK,GKAAGTFDS,-0.56 / -0.24 / -0.70 / -0.26 / 0.08 / 0.02,1 of 18 (1.48)
GFWLNEYGIS,VIYSDGRRTFYGDHVK,GRTAGTFDS,nd / 2.04 / 2.24 / nd / 2.34 / 2.87,0 of 18
GFDLNSYGIS,VIYSDGRRTFYGDDVK,GNAAGTFDS,0.27 / 0.60 / -0.17 / 0.97 / 0.50 / 0.39,0 of 18
GFDLNSYGIS,VIYSDGRRTFYGDDVK,GREAGTFDS,0.16 / 0.14 / 0.04 / -0.16 / -0.26 / -0.11,0 of 18
GFELNEYGIS,VIYSDGRRTFYGDSVK,GQAAGTFDV,1.13 / 0.21 / -0.06 / 0.10 / -0.08 / 0.65,0 of 18
GFWLNEYGIS,VIYSDGRRTFYGDDVK,GRTAGTFDS,0.93 / 1.04 / 1.15 / 1.59 / 0.88 / 1.38,1 of 18 (1.51)
GFELNSYGIS,VIYSDGRRTFYGDSVK,GHAAGTFDL,0.57 / 0.99 / 1.77 / 0.98 / 2.06 / 1.15,0 of 18

Picked from the list: the 6 lowest averages where every replicate gave a value.

| CDR-H1 | CDR-H2 | CDR-H3 | log10 Kd, replicates | signal with controls |
|---|---|---|---|---|
| GFDLNEYGIS | VIYSDGRRTFYGDAVK | GRTAGTFDS | -0.22 / -0.66 / -0.63 / -0.60 / -0.36 / -0.31 | 1 of 18 (3.03) |
| GFELNSYGIS | VIYADGRRTFYGDNVK | GQAAGTFDS | -0.04 / -0.27 / -0.50 / -0.49 / -0.40 / -0.39 | 0 of 18 |
| GFSLNEYGIS | VIYSDGRRTFYGDQVK | GKAAGTFDS | -0.56 / -0.24 / -0.70 / -0.26 / 0.08 / 0.02 | 1 of 18 (1.48) |
| GFSLNEYGIS | VIYSDGRRTFYGDSVK | GQTAGTFDK | -0.22 / -0.06 / -0.21 / -0.28 / -0.25 / -0.01 | 0 of 18 |
| GFGLNEYGIS | VIYSDGRRTFYHDSVK | GKTAGTFDS | -0.23 / -0.19 / -0.15 / -0.09 / 0.09 / -0.28 | 0 of 18 |
| GFDLNEYGIS | VIYSDGRRTFYGDSVK | GRTAGTFDK | -0.16 / -0.24 / 0.16 / 0.01 / -0.28 / -0.25 | 0 of 18 |